One may read the IC50 as the midpoint of a concentration-inhibition curve.

Amino acid sequences for entries named in this document (tags omitted).
UniProt Q15858, whole entry: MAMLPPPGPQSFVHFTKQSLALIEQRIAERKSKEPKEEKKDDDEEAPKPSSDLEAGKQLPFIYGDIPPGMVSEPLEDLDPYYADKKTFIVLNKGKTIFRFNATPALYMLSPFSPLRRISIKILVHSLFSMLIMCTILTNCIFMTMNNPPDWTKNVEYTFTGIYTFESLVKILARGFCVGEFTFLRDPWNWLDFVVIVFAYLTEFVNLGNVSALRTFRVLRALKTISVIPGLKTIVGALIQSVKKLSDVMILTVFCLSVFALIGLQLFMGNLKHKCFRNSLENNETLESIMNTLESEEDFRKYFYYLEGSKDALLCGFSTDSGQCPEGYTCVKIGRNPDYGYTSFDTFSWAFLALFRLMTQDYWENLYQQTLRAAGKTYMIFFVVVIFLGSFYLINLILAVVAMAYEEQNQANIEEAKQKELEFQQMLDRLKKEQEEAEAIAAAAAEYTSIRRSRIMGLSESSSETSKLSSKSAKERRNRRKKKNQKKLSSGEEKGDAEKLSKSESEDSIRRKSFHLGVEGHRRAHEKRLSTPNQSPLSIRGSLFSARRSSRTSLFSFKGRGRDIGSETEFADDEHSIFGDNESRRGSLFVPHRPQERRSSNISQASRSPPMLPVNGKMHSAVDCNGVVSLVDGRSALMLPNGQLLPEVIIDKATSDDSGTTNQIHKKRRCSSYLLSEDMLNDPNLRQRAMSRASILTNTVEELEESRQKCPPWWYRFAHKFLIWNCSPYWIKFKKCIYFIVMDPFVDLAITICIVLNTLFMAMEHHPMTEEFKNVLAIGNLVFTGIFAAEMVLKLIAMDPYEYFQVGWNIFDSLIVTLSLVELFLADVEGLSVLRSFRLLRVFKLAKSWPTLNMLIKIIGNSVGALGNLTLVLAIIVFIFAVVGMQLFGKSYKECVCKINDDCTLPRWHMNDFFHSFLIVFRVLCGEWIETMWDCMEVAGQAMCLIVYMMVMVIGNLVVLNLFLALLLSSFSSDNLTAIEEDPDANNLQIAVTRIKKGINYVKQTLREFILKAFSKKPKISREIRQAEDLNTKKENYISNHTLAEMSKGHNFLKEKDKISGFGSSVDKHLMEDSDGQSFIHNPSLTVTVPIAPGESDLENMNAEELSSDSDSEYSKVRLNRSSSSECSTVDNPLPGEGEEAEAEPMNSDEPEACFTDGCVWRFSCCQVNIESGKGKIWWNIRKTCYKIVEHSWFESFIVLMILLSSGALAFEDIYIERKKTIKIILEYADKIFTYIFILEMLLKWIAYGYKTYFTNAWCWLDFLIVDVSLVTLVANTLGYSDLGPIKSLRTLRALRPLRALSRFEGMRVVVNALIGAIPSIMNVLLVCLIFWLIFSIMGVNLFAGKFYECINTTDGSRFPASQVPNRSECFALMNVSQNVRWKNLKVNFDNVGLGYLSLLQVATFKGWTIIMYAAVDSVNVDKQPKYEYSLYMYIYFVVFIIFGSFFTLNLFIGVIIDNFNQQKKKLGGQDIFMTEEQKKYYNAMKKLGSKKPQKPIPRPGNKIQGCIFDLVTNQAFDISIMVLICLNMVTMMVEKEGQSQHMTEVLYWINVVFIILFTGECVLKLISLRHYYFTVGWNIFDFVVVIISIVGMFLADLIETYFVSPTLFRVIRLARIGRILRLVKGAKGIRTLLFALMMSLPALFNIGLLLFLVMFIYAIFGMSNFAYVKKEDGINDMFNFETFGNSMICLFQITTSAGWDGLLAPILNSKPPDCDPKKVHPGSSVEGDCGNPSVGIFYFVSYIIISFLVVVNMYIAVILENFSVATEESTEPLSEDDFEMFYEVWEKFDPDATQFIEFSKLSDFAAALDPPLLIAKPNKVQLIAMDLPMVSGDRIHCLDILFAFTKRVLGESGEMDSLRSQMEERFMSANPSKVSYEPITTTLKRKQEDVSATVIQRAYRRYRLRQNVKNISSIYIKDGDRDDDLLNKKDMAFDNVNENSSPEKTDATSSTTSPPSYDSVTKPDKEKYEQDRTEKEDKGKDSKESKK

Assay [1] addresses T1, Nav 1.7 (Homo sapiens (Human), UniProt Q15858). The assay can be described thus: in-vitro Nav 1.7 PX data. The settings on record: PatchXpress (PX). Type of assay: cell-based.
In assay [2] the target is T1, Nav 1.7. The assay can be described thus: Nav 1.7 in vitro PX assay (PatchXpress whole cell voltage clamp).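 Further: holding potential set for 20 to 50% inactivation, sodium current evoked by a 20 ms step to −10 mV, peak current inhibition read after compound exposure, 3–5 cells per concentration.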 The following applies: HEK 293 cells stably transfected with human Nav1.7, partially inactivated state. Format: cell-based.

In the case of `COc1cc(-c2cc(F)cnc2OC)c(C#N)cc1-c1nccc2cc(S(=O)(=O)Nc3ccon3)ccc12` [Example 83, 1-(5-cyano-4-(5-fluoro-2-methoxy-3-pyridinyl)-2-methoxyphenyl)-N-3-isoxazolyl-6-isoquinolinesulfonamide], the IC50 against Nav 1.7 [1] was determined as 236 nM. Compound `COc1cc(-c2cc(F)cc(F)c2)c(Cl)cc1-c1nccc2cc(S(=O)(=O)Nc3nncs3)ccc12` [Example 380, 1-(2-chloro-3′,5′-difluoro-5-methoxy-4-biphenylyl)-N-1,3,4-thiadiazol-2-yl-6-isoquinolinesulfonamide] gave an IC50 against Nav 1.7 [2] of 19 nM. The same measure, in the same setting: the result for `COc1cc(-c2cccc(F)c2)c(Cl)cc1-c1nc(C#N)cc2cc(S(=O)(=O)Nc3ccon3)ccc12` [Example 400, 1-(2-CHLORO-3′-FLUORO-5-METHOXY-4-BIPHENYLYL)-3-CYANO-N-3-ISOXAZOLYL-6-ISOQUINOLINESULFONAMIDE] reads 128 nM.
